The results in this text go back to patent publication US5026711A, “4-amino quinolines and naphthyridines and their use as medicines” (priority 1988, dated 1991).

This test deals with central benzodiazepine receptors. The experiment in a line: inhibition of specific binding of [3H] flunitrazepam to central benzodiazepine receptors, rat brain. Conditions: 4° C., pH 7.4. The text has this:
A study has also been made of their in vitro affinity for central benzodiazepine receptors and for those of the peripheral type according to the methods described in what follows: the IC50 in vitro has been determined, i.e. the concentration in the medium of the studied product which inhibits 50% of the binding to the benzodiazepine receptors of a binder known to be specific for these receptors.
(b) determination of the concentration of the product under study inhibiting 50% of the specific binding of flunitrazepam to the central receptors.
The brains of rats were removed after decapitation and ground, then placed in suspension in an aqueous solution of sucrose (0.32M). The mixture is centrifuged and the pellet is resuspended to give a homogenous suspension in a TRIS-HCl buffered solution (50 mM; pH=7.4). Aliquots of this suspension are incubated at 4° C. after addition of [^3 H] flunitrazepam, alone or with increasing amounts of the compound to be tested. The amount of labelled product bound to the membranes after the latter have been separated from the incubation medium by binding to glass fiber filters is determined by means of liquid scintillation counting and the IC50 is calculated by means of the logit-log method; non-specificbinding of flunitrazepam is determined by introducing 2 μM of clonazepam.

The structures appear in SMILES notation.

`CCC(C)N(C)C(=O)c1cc2ccccc2c(-c2ccccc2Cl)n1` (stereo not shown) [PK11195, 1-(2-chlorophenyl) 3-(N-methyl N-methylpropyl) carbamoyl isoquinoline, reference compound] registered an IC50 of 21.4 µM. In other words, the double-digit micromolar range.
